Laboratory results from ChEMBL document CHEMBL1145880, “Aryl piperazine melanocortin MC4 receptor agonists” (Bioorg Med Chem Lett, 2003).

Sequences of proteins named here, by UniProt entry; tags and fusion partners are left off. A change or cut given only in a name is not applied to a line headed by its entry.
UniProt Q01726: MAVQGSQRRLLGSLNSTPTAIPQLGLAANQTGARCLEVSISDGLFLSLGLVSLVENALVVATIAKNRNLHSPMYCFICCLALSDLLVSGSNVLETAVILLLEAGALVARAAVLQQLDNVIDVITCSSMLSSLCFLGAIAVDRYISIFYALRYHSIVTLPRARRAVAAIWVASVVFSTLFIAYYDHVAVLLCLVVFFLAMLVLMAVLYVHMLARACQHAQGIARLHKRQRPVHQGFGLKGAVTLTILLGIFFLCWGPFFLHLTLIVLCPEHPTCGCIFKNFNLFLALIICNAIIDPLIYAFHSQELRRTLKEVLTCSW
UniProt P41968: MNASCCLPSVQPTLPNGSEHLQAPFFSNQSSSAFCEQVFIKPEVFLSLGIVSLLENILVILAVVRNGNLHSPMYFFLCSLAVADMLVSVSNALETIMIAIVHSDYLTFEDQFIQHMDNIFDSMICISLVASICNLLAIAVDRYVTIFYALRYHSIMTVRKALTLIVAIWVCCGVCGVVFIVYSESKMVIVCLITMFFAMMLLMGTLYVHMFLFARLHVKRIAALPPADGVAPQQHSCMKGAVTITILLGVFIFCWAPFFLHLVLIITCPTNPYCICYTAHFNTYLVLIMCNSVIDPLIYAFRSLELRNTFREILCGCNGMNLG

What was measured:
[1] = target: Melanocyte-stimulating hormone receptor (Homo sapiens, UniProt Q01726); test: In vitro cAMP accumulation in HEK cells transfected with human Melanocortin 1 receptor (hMC1R); format: functional, cell-based, HEK293
Melanocortin receptor 3 = Melanocortin receptor 3 (Homo sapiens, UniProt P41968); test: In vitro cAMP accumulation in HEK cells transfected with human Melanocortin 3 receptor (hMC3R); format: functional, cell-based, HEK293

`O=C(N[C@H](Cc1ccc(Cl)cc1)C(=O)N1CCC(Cn2cncn2)(C2CCCCC2)CC1)[C@H]1Cc2ccccc2CN1` showed an EC50 [1] of 1400 nM and an EC50 (Melanocortin receptor 3) of 1400 nM.
